In patent publication US8900194B2, “Microneedle devices and microneedle delivery apparatus” (3M Innovative Properties Company, priority 2002, dated 2014):

Details: 0.100 gm/ml FITC-dextran in water
Description: Human cadaver skin was soaked for approximately one hour in 0.025M phosphate buffer solution (PBS) before being cut to size to fit 5 cm^2 Franz cells modified to sit over individual stirrers within an enclosed, temperature-controlled box. The temperature was maintained at 32° C. during the permeation experiment. The receiver cell solution was 0.025M PBS. Impedance measurements were made both before and following microneedle application. Skin samples with a resistivity lower than 10,000 Ω·cm^2 were discarded.
The microneedles were attached to the piston of an impactor of the general design shown in FIG. 7 to 10 and applied to the cadaver skin. The piston velocity was 8 m/sec and the piston mass was 7 gm.
All cells were kept at 32° C. for the duration of the study.
The aspect ratio of the microneedles was approximately 3:1.
Average cumulative flux was determined at 2 hours after application of the solution.

**Q.** For “fluorescine isothiocyanate (FITC)-dextran [FITC-Dextran]”, which “FITC-Dextran Cumulative Flux” value (6 hrs, treated skin (Example 4 microneedles), average of 3) is on record?
**A.** 66.5 μg/cm^2

**Q.** And the “FITC-Dextran Cumulative Flux” value (6 hrs, untreated skin (no microneedles))?
**A.** 6.4 μg/cm^2

**Q.** And the “FITC-Dextran Cumulative Flux” value (24 hrs, treated skin (Example 4 microneedles), average of 3)?
**A.** 387 μg/cm^2

**Q.** And the “FITC-Dextran Cumulative Flux” value (24 hrs, untreated skin (no microneedles))?
**A.** 2.2 μg/cm^2

**Q.** What about the “FITC-Dextran Cumulative Flux” value (48 hrs, treated skin (Example 4 microneedles), average of 3) of the same substance?
**A.** 823 μg/cm^2

**Q.** And the “FITC-Dextran Cumulative Flux” value (48 hrs, untreated skin (no microneedles))?
**A.** 0.8 μg/cm^2

**Q.** What about the “FITC-Dextran Cumulative Flux” value (72 hrs, treated skin (Example 4 microneedles), average of 3) of the same substance?
**A.** 1271 μg/cm^2

**Q.** What about the “FITC-Dextran Cumulative Flux” value (72 hrs, untreated skin (no microneedles)) of the same substance?
**A.** 5.0 μg/cm^2

Like-named read-outs stand apart in the source and are kept apart here.
